The assay deals with PHD2_181-402 (Homo sapiens, UniProt Q9GZT9). The experiment in a line: Km determination of 2-OG for PHD2_181-402 (succinate detection). Particulars: 100 nM PHD2_181-402, 2-OG 625 nM to 40 μM, 10-minute reaction, Michaelis-Menten fit. The format is biochemical.

Amino acid sequences for entries named in this document (tags omitted). Residues count along the entry.
UniProt Q9GZT9, 181-402: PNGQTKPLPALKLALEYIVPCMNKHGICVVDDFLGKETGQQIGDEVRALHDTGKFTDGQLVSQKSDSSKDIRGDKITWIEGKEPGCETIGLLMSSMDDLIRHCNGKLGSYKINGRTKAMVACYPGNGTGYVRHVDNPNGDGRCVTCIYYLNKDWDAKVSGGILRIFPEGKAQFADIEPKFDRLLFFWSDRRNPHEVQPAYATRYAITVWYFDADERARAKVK

In general, Km refers to the concentration of substrate that gives half-maximal velocity. Regarding `O=C(O)CCC(=O)C(=O)O` [2-OG, 2-oxoglutarate], the Michaelis-Menten constant (Km) came out at 1.2 µM.

Values taken from publication PMC8253137, “Microbiota-derived butyrate is an endogenous HIF prolyl hydroxylase inhibitor” (Gut Microbes, 2021).
